Measured values from US20070004634A1 (published 2007).

Target: T1, His-tagged soluble recombinant human IGF-IR (srhIGF-1R-his) (human, UniProt P08069 31-935)
T1 construct: extracellular domain; Bought construct; not shown: His tag
Test: ALPHAScreen competition against b-hIGF-1 on srhIGF-1R-his

Q: For GRVDWLQRNANFYDWFVAELG [S175], which IC50 is on record?
A: Its IC50 is 7.1 µM.
